Experimental data as given in paper PMC7802075, “Antileishmanial Chemotherapy through Clemastine Fumarate Mediated Inhibition of the Leishmania Inositol Phosphorylceramide Synthase” (ACS Infectious Diseases, 2020).

Molecular target: T1, LmjIPCS (inositol phosphorylceramide synthase from L. major) (Leishmania major, UniProt E9AFX2)
T1 sequence (E9AFX2 1-338): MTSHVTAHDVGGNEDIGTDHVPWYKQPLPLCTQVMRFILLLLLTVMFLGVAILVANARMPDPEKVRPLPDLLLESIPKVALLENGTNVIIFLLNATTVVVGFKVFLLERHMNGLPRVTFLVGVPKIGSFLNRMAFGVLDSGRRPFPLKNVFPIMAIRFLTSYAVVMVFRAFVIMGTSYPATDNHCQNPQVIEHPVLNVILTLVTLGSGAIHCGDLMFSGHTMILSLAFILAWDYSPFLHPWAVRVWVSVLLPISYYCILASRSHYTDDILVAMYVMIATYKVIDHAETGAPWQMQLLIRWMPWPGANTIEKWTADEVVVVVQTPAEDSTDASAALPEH

CC1=C(/C=C/C(C)=C/C=C/C(C)=C/C(=O)O)C(C)(C)CCC1 [TRETINON]
20mM inhibition LmjIPCS: 30%
